Settings in all cases: male ddY mice, GA 1200 mg/kg/day, CP 8 mg/kg/day
The test system of data set [1] is glutamate oxaloacetate transaminase(GOT). The data set is described as follows: Serum glutamate oxaloacetate transaminase activity in mice after 4 weeks oral administration of CP and/or GA.
The next data set deals with Cholinesterase(ChE). The data set is described as follows: Serum cholinesterase activity in mice after 4 weeks oral administration of CP and/or GA.
Data set [2] relates to lactate dehydrogenase(LDH). Briefly: Serum lactate dehydrogenase activity in mice after 4 weeks oral administration of CP and/or GA.
The subject of data set [3] is glutamate pyruvate transaminase(GPT). The data set is described as follows: Serum glutamate pyruvate transaminase activity in mice after 4 weeks oral administration of CP and/or GA.
[4] abbreviates: serum 24 h after final administration, mean±SE, 5 mice.

Regarding `CCOP(=S)(OCC)Oc1nc(Cl)c(Cl)cc1Cl`, the “Effect on serum GOT (in words)” value in data set [1] is listed as “slightly increased”. In data set [1] (setting [4]), the “Enzymic activity in serum, GOT” value came out at 106.9 ± 30.7 IU/L. Also, the “Effect on serum ChE activity (in words)” value in the data set on Cholinesterase(ChE) is recorded as “remarkably decreased”. Moreover, the “Enzymic activity in serum, ChE” value with Cholinesterase(ChE) (setting [4]) was found to be 9.7 ± 3.2 IU/L. Further, in data set [2], the “Effect on serum LDH (in words)” value is listed as “slightly increased”. The “Enzymic activity in serum, LDH” value in data set [2] (setting [4]) is 527.9 ± 35.1 IU/L. Moreover, in data set [3], the “Effect on serum GPT (in words)” value is listed as “slightly increased”. For the same molecule, in data set [3] (setting [4]), the “Enzymic activity in serum, GPT” value is 8.0 ± 1.2 IU/L.

The values above are taken from patent US20090263523A1, “Enhancer of Cholinesterase Activity” (published 2009).
